Test results: US20260382775A1, “ALPHA EMITTER LABELLED SOMATOSTATIN RECEPTOR ANTAGONISTS” (published 2026)

Key:
[1] = Radiochemical stability of ^212Pb-labelled Compound 1 (HPLC); conditions: over 6 h, sodium ascorbate formulation buffer
Method: Compound 1 was dissolved in reaction buffer, e.g. at a concentration of 1 mg/mL and added to a solution of ^212Pb (in HCl). The resulting mixture was heated at temperatures between 75-95 °C for 20-45 min, and then allowed to cool to room temperature. The specific activity during radiolabeling ranged between 100-2000 Gbq/mmol. The reaction mixture was added to a formulation buffer consisting of sodium ascorbate to stabilize the final dose and to guarantee the quality and safety of the dose. The radiochemical purity was >90% over 6 h and no radiolytic degradation was observed by high performance liquid chromatography (HPLC).

[2] = Stability of ^225Ac-Compound 1 radiolabelling (TLC); conditions: up to 72 h after synthesis
Method: The radiochemical purity of Compound 1 over the monitored period is stable resulting in an acceptable stability of the formulation.
Radiolabelling was initially performed as described in Example 3 but with reaction buffer comprising 0.25 M TRIS buffer at pH 8. Subsequently, the radiolabelling was performed by dissolving Compound 1 in the reaction buffer at a concentration of 1 mg/mL and added to a solution of ^225Ac (in HCl). The resulting mixture was heated at temperatures between 75-95 °C for 20-45 min, and then allowed to cool to room temperature. The specific activity during radiolabeling ranged between 1-10 GBq/mmol. The reaction mixture was added to a formulation buffer consisting of sodium ascorbate to stabilize the final dose.

[3] = test system: NCI-H69 tumor expressing SST2; assay: Biodistribution of ^212Pb-Compound 1 in NCI-H69 xenograft mice; conditions: for tumor uptake: 1.3-1.5 MBq
Method: The 1 h, 4 h, 24 h biodistribution study of ^212Pb-Compound 1 was performed with xenograft Balb/c nude mice with a NCI-H69 model for expressing SST2. NCI-H69 cells (cells from the human small cell lung cancer cell line NCI-H69) were grown in DMEM media with 10% FBS. Upon 80% confluency, cells were collected and dissolved in 1:1 of PBS and matrigel for injection. 50 μl of cell solution with 5×10^6 cells were injected in right flank (Balb/C nude female mice 6-8 weeks). 15 mice were injected with 1.3-1.5 MBq of ^212Pb-Compound 1 (approximately 50 μL injection). At 1 hour, 4 hours and 24 hours post injection, 5 mice were sacrificed by cervical dislocation and a blood sample immediately removed by cardiac puncture.
Mice were dissected and organs were washed in PBS to remove blood and added to pre-weighed gamma counter tubes for further analysis. […] A moderate uptake within the radiosensitive organ (kidney) was observed, with a tumor to kidney ratio staying constant at 0.4 over the entire experimental period.

[4] = test system: NCI-H69 tumor cells expressing SST2; assay: Biodistribution of ^225Ac-Compound 1 in NCI-H69 xenograft mice
Method: The 4 h, 24 h, 96 h biodistribution study of ^225Ac-Compound 1 was performed with xenograft Balb/c nude mice engrafted with NCI-H69 tumor cells expressing SST2. NCI-H69 cells (cells from the human small cell lung cancer cell line NCI-H69) were grown in RPMI1640 media with 10% FBS. Upon 80% confluency, cells were collected and dissolved in 1:1 of PBS and matrigel for injection. 100 μl of cell solution with 5×10^6 cells were injected in the right flank of Balb/C nude female mice at an age of ~7 weeks. 12 mice were injected with 90 kBq of ^225Ac-Compound 1 in 100 μL. At 4 hours, 24 hours and 96 hours post injection, 4 mice were sacrificed by overdose of a mixture of ketamine and xylazine followed by exsanguination via intracardiac puncture. Mice were dissected and organs were rinsed in 0.9% NaCl to eliminate contaminating blood and blotted before being weighed and subsequently transferred into scintillation vials. Tissues were dissolved using Solvable as tissue solubilizer. Each solution was decolorized by adding 30% H2O2 before scintillation counting. Pico-Fluor Plus was used as liquid scintillation counting cocktail. The radioactivity was measured using a Hidex 300 SL calibrated for ^225Ac radionuclide.

[5] = test system: NCI-H69 tumor expressing SST2; assay: Single dose efficacy study of ^212Pb-Compound 1 (0.35-1.6 MBq), Table 1
Method: (§1) A single dose study with tumor bearing mice with an NCI-H69 model for expressing SST2 was performed. 25 Balb/C nude female mice aged 6-8 weeks were injected with 5×10^6 NCI-H69 cells in the right flank three weeks prior to treatment. Mice were observed daily 14 days prior to and for 60 days following treatment. Mice were treated when tumors reach approximately 250 mm^3 and were euthanized when either tumors reach 1000 mm^3 or mice reach an euthanize status on the health score sheet.
(§2) The mice were distributed into five groups for different treatments: […]

[6] = test system: NCI-H69 tumor expressing SST2; assay: Single dose efficacy study of ^212Pb-Compound 1 (113-503 kBq), Table 2; conditions: for time to visible treatment effects: after treatment
Method: as §1, §2

[7] = test system: SST2-positive NCI-H69 tumor; assay: Single- and multi-dose efficacy study of ^225Ac-Compound 1
Method: (§3) A single- and multi-dose efficacy study in SST2-positive NCI-H69 tumor-bearing mice was conducted. 60 Balb/C nude female mice aged 6-8 weeks were injected with 5×10^6 NCI-H69 cells in the right flank and treatment started when tumors reached a mean tumor volume of 140 mm^3. Animals were euthanized when either tumor volumes of more than 1000 mm^3 were observed or other ethical criteria were reached.

[8] = test system: SST2-positive NCI-H69 tumor; assay: Single- and multi-dose efficacy study of ^212Pb-Compound 1
Method: as §3, with “55” for “60”, “260” for “140”

[9] = test system: SST2-positive NCI-H69 tumor; assay: Single-dose efficacy study of ^225Ac-Compound 1
Method: A single-dose efficacy study in SST2-positive NCI-H69 tumor-bearing mice was conducted. Balb/c nude female mice aged 6-8 weeks were injected with 5×10^6 NCI-H69 cells in the flank and treatment started when tumors reached a mean tumor volume of 160 mm^3.

[10] = unlabelled Compound 1 control, single injection

C[C@@H](O)[C@@H]1NC(=O)[C@H](CCCCN)NC(=O)[C@@H](Cc2ccc(NC(N)=O)cc2)NC(=O)[C@H](Cc2ccc(NC(=O)[C@@H]3CC(=O)NC(=O)N3)cc2)NC(=O)[C@H](NC(=O)[C@H](Cc2ccc(Cl)cc2)NC(=O)CN2CCN(CC(=O)O)CCN(CC(=O)O)CCN(CC(=O)O)CC2)CSSC[C@@H](C(=O)N[C@H](Cc2ccc(O)cc2)C(N)=O)NC1=O
radiolytic degradation ([1]; HPLC): no radiolytic degradation was observed | radiochemical purity over time (stability) [1]: > 90% | radiochemical purity over the monitored period [2]: stable | tissue distribution of uptake ([3]; FIG. 2, after 24 hours): distributed between two major tissue compartments (kidneys and tumor) | uptake in the tumor tissue ([3]; FIG. 2, over 1, 4 and 24 hours): clear uptake | tumor to kidney ratio ([3]; constant over the entire experimental period (1-24 h)): 0.4 | tumor uptake ([3]; persisted over 24 h): > 2 % ID/g | kidney uptake ([3]; radiosensitive organ (kidney), 1, 4, 24 h): moderate uptake | tumor uptake ([3]; t=1 h): > 5 % ID/g | tumor-to-kidney ratio ([4]; 4 h, 90 kBq): 0.75 | tumor-to-kidney ratio ([4]; 96 h, 90 kBq): 1.38 | tumor to background (tumor/kidney) ratio, change over time ([4]; FIG. 5B, over the course of 96 h): increase of tumor to background ratio | kidney uptake, change over time ([4]; over 96 h, 90 kBq): rapidly decreased over 96 h | tumor uptake ([4]; over 96 h, 90 kBq): > 4.5 % ID/g | kidney uptake ([4]; radiosensitive organ (kidney), 90 kBq): moderate uptake | tumor growth / tumor size response ([5]; 20 MBq single dose): response and delay of the tumor growth but no reduction of the tumor size | tumor size ([5]; FIG. 3A, 1.6 MBq and 0.75 MBq, single injection): reduces tumor size | tumor growth delay versus unlabelled Compound 1 ([5]; all doses, even lowest level 0.35 MBq, single dose): delay of growth of the tumor size | fraction of radioactivity giving comparable tumor reduction versus ^177Lu-Compound 1 ([5]; mid and high dose (0.75 MBq and 1.6 MBq) vs 20 MBq ^177Lu-Compound 1): 1/12 | tumor growth [5, 10]: the tumor growth progressed in the animals without any impact | duration of controlled tumor growth ([6]; 21.5 MBq single dose): up to 20 days | median survival ([6]; 21.5 MBq single dose): 42 days | tumor growth / tumor size response ([6]; 21.5 MBq single dose): response and delay of the tumor growth but no reduction of the tumor size | time to visible treatment effects ([6]; 21.5 MBq single dose): ~ 3 days | median survival ([6]; 113 kBq single dose): 41 days | median survival ([6]; 236 kBq single dose): 38 days | median survival ([6]; 503 kBq single dose): 49 days | median survival compared to ^177Lu-Compound 1 (21.5 MBq) ([6]; 503 kBq single dose): longer median survival | potency regarding tumor growth inhibition and prolongation of survival versus 21.5 MBq ^177Lu-Compound 1 ([6]; 503 kBq single dose): higher potency | mean tumor volume relative to d0 ([6]; FIG. 3B, highest dose 503 kBq): initial reduction of the mean tumor volume relative to d0 | median survival ranking among groups ([6]; FIG. 3C, highest dose 503 kBq): longest median survival | time to visible treatment effects ([6]; ^212Pb treatment (113, 236, 503 kBq)): ~ 3 days | tumor growth delay versus unlabelled Compound 1 ([6]; all doses, even lowest level 113 kBq, single dose): delay of growth of the tumor size | time to reach the ethical limit ([6]; control (Compound 1) animals): < 28 days | duration of controlled tumor growth ([6]; high dose 503 kBq): up to 20 days | duration of controlled tumor growth ([6]; low dose 113 kBq): 10 days | duration of controlled tumor growth ([6]; medium dose 236 kBq): 14 days | decrease in tumor volume ([6]; medium dose 236 kBq, at day 10): ~ 5% | fraction of radioactivity giving comparable tumor reduction versus ^177Lu-Compound 1 ([6]; mid and high dose (236 kBq and 503 kBq) vs 21.5 MBq ^177Lu-Compound 1): 1/42 | tumor growth [6, 10]: the tumor growth progressed in the animals without any impact | median survival ([6]; unlabelled control, single injection): 22 days | median survival ([7]; 20 MBq Q2W × 3): Not reached | median survival ([7]; 30 kBq Q2W × 3 (low dose)): Not reached | median survival ([7]; 30 kBq QW (low dose)): Not reached | median survival ([7]; 30 kBq QW × 3 (low dose)): Not reached | median survival ([7]; 90 kBq QW (high dose)): Not reached | initial induction of tumor regression versus ^177Lu-Compound 1 given 3x every 2 weeks ([7]; single dose (QW) of 90 kBq and 30 kBq): as effective as ^177Lu-Compound 1 | rate of complete remissions versus ^177Lu-Compound 1 ([7]; single dose (QW) of 90 kBq and 30 kBq vs 20 MBq Q2W × 3): outperformed ^177Lu-Compound 1 | time to reach the ethical limits ([7]; unlabelled Compound 1 control): 21 to 55 days | median survival ([7]; unlabelled Compound 1 control, QW): 34 days | complete remissions ([8]; 20 MBq Q2W × 3): 100% | efficacy of multiple doses compared to different regimens and doses of ^212Pb-Compound 1 ([8]; 20 MBq Q2W × 3): more effective | median survival ([8]; 250 kBq Q2W × 3 (low dose)): 70 days | recurrence of tumors ([8]; ^177Lu-Compound 1 Q2W × 3): not after ^177Lu-Compound 1 Q2W×3 | recurrence of tumors ([8]; all ^212Pb-treated groups, but not after ^177Lu-Compound 1 Q2W × 3): recurrence of tumors | time to reach the ethical limits ([8]; unlabelled Compound 1 control): 16 to 53 days | median survival ([8]; unlabelled Compound 1 control, Q2W × 3): 30 days and 34 days | tumor growth ([9]; 3.33 kBq single dose, up to day 9 after treatment): no significant effect on tumor growth | tumor growth ([9]; 10 kBq and 30 kBq single dose, starting on day 4 after treatment): tumor growth suppression | tumor growth versus vehicle control and 3.33 kBq ([9]; FIG. 8, single doses of 10 kBq and 30 kBq, until day 9): tumor growth reduction

Values joined by “and” are separate entries in the source; they are usually repeats but may differ in a detail not shown here. Equal entries are not always repeated.
